From patent US12303503B1, “Use of dextromethorphan in combination with CYP2D6 and CYP3A4 enzyme inhibitors for the treatment of pain” (priority 2023, dated 2025) come the findings set out here.

The experiment is classed as in vivo, human. As to conditions: person, long standing (>20 years) pain; oral treatment.

With `CN1CC[C@]23c4c5ccc(O)c4O[C@H]2C(=O)CC[C@H]3[C@H]1C5` [hydromorphone], the “pain relief (upper extremity pain, baseline grade #8-9)” value was “not relieved”.
